Target: T1, Alpha-1A adrenergic receptor (Rattus norvegicus, UniProt P43140)
T1 sequence (P43140 whole entry): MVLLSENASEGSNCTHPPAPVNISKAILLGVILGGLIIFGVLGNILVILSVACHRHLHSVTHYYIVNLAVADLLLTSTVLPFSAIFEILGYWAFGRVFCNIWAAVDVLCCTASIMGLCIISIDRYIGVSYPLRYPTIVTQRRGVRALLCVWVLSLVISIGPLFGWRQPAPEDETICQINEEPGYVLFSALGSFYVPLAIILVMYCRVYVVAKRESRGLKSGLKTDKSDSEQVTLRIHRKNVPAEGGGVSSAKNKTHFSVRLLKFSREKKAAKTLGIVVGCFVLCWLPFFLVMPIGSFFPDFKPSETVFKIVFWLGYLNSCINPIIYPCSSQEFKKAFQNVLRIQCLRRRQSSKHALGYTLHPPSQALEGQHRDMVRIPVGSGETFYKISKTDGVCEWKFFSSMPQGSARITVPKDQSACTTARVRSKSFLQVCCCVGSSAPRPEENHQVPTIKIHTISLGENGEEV

In the case of `c1ccc2c(CC3=NCCN3)cccc2c1` [Naphazoline], the Ki is reported as 110 nM.

Reference: BindingDB's records for PubMed 17827 (1977)
